From patent US9493474B2, “Inhibitors of the renal outer medullary potassium channel” (Merck Sharp & Dohme Corp., priority 2011, dated 2016)
pIC50: −log10 of the molar value.

Sequences of proteins named here, by UniProt entry; tags and fusion partners are left off.
UniProt P48048, whole entry, species assumed: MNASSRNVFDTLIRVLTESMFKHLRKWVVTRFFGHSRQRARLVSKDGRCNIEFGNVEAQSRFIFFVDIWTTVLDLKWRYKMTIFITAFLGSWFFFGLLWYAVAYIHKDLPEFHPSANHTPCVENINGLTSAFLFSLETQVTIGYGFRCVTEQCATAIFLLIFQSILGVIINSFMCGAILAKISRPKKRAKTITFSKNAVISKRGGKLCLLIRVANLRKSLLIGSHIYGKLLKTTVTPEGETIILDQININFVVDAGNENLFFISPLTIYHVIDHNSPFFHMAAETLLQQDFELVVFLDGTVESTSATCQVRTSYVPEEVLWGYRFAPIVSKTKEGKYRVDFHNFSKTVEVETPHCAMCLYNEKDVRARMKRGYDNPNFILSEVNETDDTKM

Experiments:
hROMK (hKir1.1) = hROMK (hKir1.1) (Homo sapiens (Human), UniProt P48048); assay: Thallium Flux Assay; assay type: cell-based; details: HEK293 cells stably expressing hROMK (hKir1.1); FLIPR-Tetra, 30 min compound incubation
Text: (§1) Several assays may be used to measure functional inhibition of the ROMK channel by compounds of the instant invention. One assay that can be used is an electrophysiology assay that measures the electrical current that is generated as potassium permeates through the channel. Another ROMK functional assay makes use of the ability of thallium to permeate through open ROMK channels and increase the fluorescence of a dye previously loaded into the cells. Under control conditions, cells loaded with dye and exposed to thallium-containing medium display a time-dependent increase in fluorescence, the rate of which depends on number of functional channels. When cells are incubated in the presence of a channel inhibitor, the increase in fluorescence is attenuated in a concentration-dependent manner, and IC50 values of inhibition by compounds can be accurately determined. This assay has been established with cell lines expressing either human, or rat ROMK channels, and operates in 384-well format.
HEK293 cells stably expressing hROMK (hKir1.1) were grown at 37° C. in a 10% CO2 humidified incubator in complete growth media: Dulbecco's Modified Eagle Medium supplemented with non-essential amino acids, Penicillin/Streptomycin/Glutamine, G418 and FBS. At >80% confluency, the media was aspirated from the flask and the sample was rinsed with 10 ml Calcium/Magnesium-free PBS. […] To dislodge the cell, the side of the flask was gently banged with a hand. The cells were triturated completely and then transferred to 25 ml complete media. The sample was then centrifuged at 1,500 rpm for 6 minutes, followed by resuspension in complete growth media and then cell concentration was determined. […] Under ideal growth conditions and appropriate tissue culture practices, this cell line is stable for 40-45 passages.
• FluxOR™ Reagent (Component A) • FluxOR™ Assay Buffer (Component B)—10× Concentrate • PowerLoad™ Concentrate (Component C)—100× Concentrate • Probenecid (Component D)—Lyophilized sample is kept at −20° C. Water soluble, 100× after solubilization in 1 ml water. […] Store at 4° C. • Thallium sulfate (Tl2SO4) Concentrate (Component G)—50 mM in water. […] Can be stored at room temperature • Stimulant Buffer (prepared at 5× final concentration in 1× FluxOR™ Chloride-Free Buffer): 7.5 mM Thallium sulfate and 0.75 mM Potassium sulfate (to give a final assay concentration of 3 mM Thallium/0.3 mM Potassium). Store at 4° C. when not in use. If kept sterile, this solution is good for months. Assay Protocol—
The ROMK channel functional thallium flux assay is performed in 384 wells, using the FLIPR-Tetra instrument. HEK-hKir1.1 cells are seeded in Poly-D-Lysine microplates and kept in a 37° C.-10% CO2 incubator overnight. On the day of the experiment, the growth media is replaced with the FluxOR™ reagent loading buffer and incubated, protected from light, at ambient temperature (23-25° C.) for 90 min. The loading buffer is replaced with assay buffer±test compound followed by 30 min incubation at ambient temperature, where the Thallium/Potassium stimulant is added to the microplate.
• 1. Seed HEK-hKir1.1 cells (50 μl at 20,000 cells/well) in 384-well PDL coated Microplates • 2. Allow cells to adhere overnight in humidified 37° C./10% CO2 incubator • 3. Completely remove cell growth media from microplate and replace with 25 μl loading buffer • 4. Incubate Microplate at room temperature, protected form light, for 90 min • 5. Remove loading buffer and replace with 25 μl 1× Assay Buffer±test compound. • 6. Incubate microplate at room temperature, protected form light, for 30 min • 7. […] Excitation=400 nm, Emission=460 & 580 nm. Collect data for 10 min. Data Calculation—
The fluorescence intensity of wells containing 3 μM of a standard control ROMK inhibitor of the present invention is used to define the ROMK-sensitive component of thallium flux. Fluorescence in the presence of test compounds is normalized to control values to provide % fluorescence change.

Kir1.1 (ROMK1) = Kir1.1 (ROMK1) (Homo sapiens (Human), UniProt P48048); assay: Electrophysiology Assay (whole cell voltage clamp, IonWorks Quattro); assay type: cell-based; details: Chinese hamster ovary cells stably expressing Kir1.1; block at voltage step to 0 mV, 6 minutes compound incubation; read-out: EP Assay IC50
Text: as §1
Block of Kir1.1 (ROMK1) currents was examined by whole cell voltage clamp (Hamill et. al. Pfluegers Archives 391:85-100 (1981)) using the IonWorks® Quattro automated electrophysiology platform (Molecular Devices, Sunnyvale, Calif.). Chinese hamster ovary cells stably expressing Kir1.1 channels were maintained in T-75 flasks in cell culture media in a humidified 10% CO2 incubator at 37° C. Prior to an experiment, Kir1.1 expression was induced by overnight incubation with 1 mM sodium butyrate. On the day of the experiment, cells were dissociated with 2.5 ml of Versene™ (Invitrogen 15040-066) for approximately 6 minutes at 37° C. and suspended in 10 ml of bath solution containing (in mM): 150 NaCl, 10 KCl, 2.7 CaCl2, 0.5 MgCl2, 5 HEPES, pH 7.4. After centrifugation, the cell pellet was resuspended in approximately 4.0 ml of bath solution and placed in the IonWorks® instrument. The intracellular solution consisted of (in mM): 80 K gluconate, 40 KCl, 20 KF, 3.2 MgCl2, 3 EGTA, 5 Hepes, pH 7.4. Electrical access to the cytoplasm was achieved by perforation in 0.13 mg/ml amphotericin B for 4 minutes. Amphotericin B (Sigma A-4888) was prepared as a 40 mg/ml solution in DMSO.
Voltage protocols and current recordings were performed using the IonWorks® HT software/hardware system. Currents were sampled at 1 kHz. No correction for liquid junction potentials was used. […] Current amplitudes were measured using the IonWorks® software. To assess compound potency, the fractional block during the voltage step to 0 mV was calculated in Microsoft® Excel (Microsoft, Redmond, Calif.), and dose-response curves were fitted with Igor Pro 4.0 (WaveMetrics, Lake Oswego, Oreg.). […]

| SMILES | pIC50 (hROMK (hKir1.1)) | pIC50 (Kir1.1 (ROMK1)) |
| --- | --- | --- |
| Cc1c([C@@H](O)CN2CCC3(CCCN3S(=O)(=O)c3ccc(-n4cnnn4)cc3)C2)ccc2c1COC2=O (single isomer, unassigned) [Example 19B] | 6.55 | – |
| Cc1c([C@@H](O)CN2CCCC3(CCCN(C(=O)c4ccc(-n5cnnn5)nc4)C3)C2)ccc2c1COC2=O (single isomer, unassigned) [Example 13A] | 7.06 | 7.51 |
| COc1cc(C(O)CN2CC3CN(C[C@H](O)c4ccc5c(c4C)COC5=O)C3C2)ncc1C#N (single isomer, unassigned) [Example 24] | 6.10 | – |
| Cc1c([C@@H](O)CN2CCC3(CCCN3S(=O)(=O)c3ccc(-n4cnnn4)cc3)C2)ccc2c1COC2=O (single isomer, unassigned) [Example 19A] | 6.54 | 7.34 |
| Cc1c([C@@H](O)CN2CCCC3(CCCN(C(=O)c4ccc(S(C)(=O)=O)nc4)C3)C2)ccc2c1COC2=O (stereo partly drawn) [Example 21, 5-((1R)-1-Hydroxy-2-(8-(6-(methylsulfonyl)nicotinoyl)-2,8-diazaspiro[5.5]undecan-2-yl)ethyl)-4-methylisobenzofuran-1(3H)-one] | – | 6.00 |

Continued by rising pIC50 (hROMK (hKir1.1)), values first:

| pIC50 (hROMK (hKir1.1)) | pIC50 (Kir1.1 (ROMK1)) | SMILES |
| --- | --- | --- |
| 7.21 | – | Cc1c([C@@H](O)CN2CC3CCN(C[C@H](O)c4ccc5c(c4C)COC5=O)C3C2)ccc2c1COC2=O (single isomer, unassigned) [Example 4A] |
| 7.40 | 7.09 | Cc1c([C@@H](O)CN2CC3CC(C)N(C[C@H](O)c4ccc5c(c4C)COC5=O)C3C2)ccc2c1COC2=O (single isomer, unassigned) [Example 12A] |
